Measurements published in PubChem BioAssay AID731 (The Scripps Research Institute Molecular Screening Center, 2007).
This is a selection; strong and weak results do not stand in their true shares. The source made the active and inactive calls. Cut-off read from the data, not from the text of the source: active = activation above about 23%; inactive = the rest.

Chains of the proteins cited; added tags and fusions are not shown. Lines headed by an entry give the natural chain unless they say otherwise; changes in a name come on top.
UniProt P37231: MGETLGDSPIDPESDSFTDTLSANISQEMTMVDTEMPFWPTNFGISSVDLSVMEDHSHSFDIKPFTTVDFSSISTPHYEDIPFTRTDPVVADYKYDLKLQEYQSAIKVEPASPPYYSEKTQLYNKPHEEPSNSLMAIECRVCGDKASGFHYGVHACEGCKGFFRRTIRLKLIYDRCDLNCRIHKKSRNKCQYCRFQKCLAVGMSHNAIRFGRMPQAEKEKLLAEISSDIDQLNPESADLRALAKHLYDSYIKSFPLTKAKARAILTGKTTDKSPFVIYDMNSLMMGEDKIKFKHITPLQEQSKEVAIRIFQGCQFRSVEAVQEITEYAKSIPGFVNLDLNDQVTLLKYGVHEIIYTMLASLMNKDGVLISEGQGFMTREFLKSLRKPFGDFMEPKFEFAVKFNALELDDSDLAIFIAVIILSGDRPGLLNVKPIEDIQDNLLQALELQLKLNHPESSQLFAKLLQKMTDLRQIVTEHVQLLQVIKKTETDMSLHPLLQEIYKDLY

target: Peroxisome proliferator-activated receptor gamma (Homo sapiens) (UniProt P37231); assay: PPARgamma agonists recruiting SRC-3 coactivator, primary screen, biochemical (AID 731); settings: biochemical PPARgamma/SRC-3 coactivator recruitment assay; at 8 µM; stronger effect = higher value;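 note: 0% = DMSO and 100% = reference agonist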

| Structure (SMILES) | activation |
| --- | --- |
| CCN(N=Nc1nonc1N)c1nonc1N | inactive: 0.48% |
| Cc1cc(SC(NC(=O)c2ccc(F)cc2)C(Cl)(Cl)Cl)ncn1 (stereo not given) | inactive: 3.06% |
| CCOP(=O)(Nc1ccccc1)OCC | inactive: 0.35% |
| Oc1ccccc1CNc1ccccn1 | inactive: 8.23% |
| O=C(NC(Sc1ccncn1)C(Cl)(Cl)Cl)c1ccccc1 (stereo not given) | inactive: 6.17% |
| Cc1c2non([O-])c-2c(C)[n+](=O)[n+]1[O-] | inactive: 9.57% |
| CC(C)CC(=O)NC(Sc1ccc(Cl)cc1)C(Cl)(Cl)Cl (stereo not given) | inactive: -3.73% |
| CN1CCCC(OC(=O)C(c2ccccc2)c2ccccc2)C1 (stereo not given) | inactive: -0.16% |
| Clc1ccc(Cl)c(NC2=NCC(CBr)S2)c1 (stereo not given) | inactive: 0.17% |
| COc1ccccc1OP(=O)(Nc1ccc(C)cn1)Oc1ccccc1OC | inactive: 18.5% |
| Cc1ccc(N/C(=N/P(=O)(N2CCOCC2)N2CCOCC2)N2CCOCC2)cc1 | inactive: 5.06% |
| NC(=O)c1cc([N+](=O)[O-])cc([N+](=O)[O-])c1N | inactive: -0.13% |
| CC1CCN(C(=O)Oc2c(Cl)cc(Cl)c3cccnc23)CC1 | inactive: 3.36% |
| CC(C)=N/N=C(\N)N[N+](=O)[O-] | inactive: -1.92% |
| CN(C)C(=O)OCCc1n(C)cc[n+]1C | inactive: -2.91% |
| CCN(/C(=N/P(=O)(N1CCOCC1)N1CCOCC1)N1CCOCC1)c1ccc(OC)cc1 | inactive: 0.48% |
| Cc1ccc(NP(=O)(Oc2ccccc2)Oc2ccccc2)nc1 | inactive: -3.31% |
| CCc1nc2c(n1)c1c(non1O)c1c2no[n+]1[O-] | inactive: -2.91% |
| O=[N+]([O-])c1cc([N+](=O)[O-])c(CCNc2ccccc2)c([N+](=O)[O-])c1 | inactive: 5.96% |
| O=[N+]([O-])c1cccc2n[nH]nc12 | inactive: 10.9% |
| CC(=O)N1C2C3N(C(C)=O)C1C1N(C(C)=O)C(C(N1C(C)=O)N3C(C)=O)N2C(C)=O | inactive: -2.46% |
| COc1ccc(C2=NCC(CBr)S2)cc1 (stereo not given) | inactive: -1.89% |
| O=[N+]([O-])c1ncn(CCn2ncnc2[N+](=O)[O-])n1 | inactive: 1.44% |
| O=C(OC1CN2CCC1CC2)c1cccc(Cl)c1 (stereo not given) | inactive: 7.7% |
| C(Cc1nn[nH]n1)Cc1nn[nH]n1 | inactive: -3.12% |
| CC(=O)NC(SC(=S)N(C)C)C(Cl)(Cl)Cl (stereo not given) | inactive: -2.53% |
| O=P(Nc1ccccn1)(c1ccc(Br)cc1)c1ccc(Br)cc1 | inactive: 4.11% |

| Structure (SMILES) | activation |
| --- | --- |
| c1nnnn1CCn1cnnn1 | inactive: -1.48% |
| CC(C)C(=O)NC(Sc1ccccc1)C(Cl)(Cl)Cl (stereo not given) | inactive: 3% |
| O=P(Nc1nccs1)(c1ccccc1)c1ccccc1 | inactive: -2.68% |
| CC(=O)Nc1ccc(Oc2c([N+](=O)[O-])cc([N+](=O)[O-])cc2[N+](=O)[O-])cc1 | inactive: 8.37% |
| CC(C)(C)C(=O)NC(Sc1ccccc1)C(Cl)(Cl)Cl (stereo not given) | inactive: -0.08% |
| O=P1(Nc2nc3ccc(Cl)cc3s2)COc2ccccc2O1 (stereo not given) | inactive: 12.7% |
| CCOc1ccc(C2=NCC(CBr)S2)cc1 (stereo not given) | inactive: 4.11% |
| O=c1c2cc([N+](=O)[O-])ccc2[nH]c2c([N+](=O)[O-])cc([N+](=O)[O-])cc12 | inactive: 2.56% |
| CCC(=O)N1C2C3N(C(=O)CC)C1C1N(C(=O)CC)C(C(N1C(=O)CC)N3C(=O)CC)N2C(=O)CC | inactive: -6.11% |
| COC(=O)c1cc2c(s1)N=C(c1ccccc1)N(C)P2(=O)N1CCOCC1 (stereo not given) | inactive: 2.32% |
| CC(=O)NC(SC(=S)N(CC(C)C)CC(C)C)C(Cl)(Cl)Cl (stereo not given) | inactive: 3.66% |
| Cc1ccc(OP(=O)(Nc2ccccn2)Oc2ccc(C)cc2)cc1 | inactive: -1.07% |
| c1ccc(-c2nn[nH]n2)c(-c2nn[nH]n2)c1 | inactive: 0.69% |
| CCOC(=O)NC(Sc1ccccc1)C(Cl)(Cl)Cl (stereo not given) | inactive: -10.4% |
| CCNC(=S)/N=C(\N)N[N+](=O)[O-] | inactive: 0.95% |
| O=C(NC1CCS(=O)(=O)C1)NP(=S)(Oc1ccccc1)Oc1ccccc1 (stereo not given) | inactive: 5.08% |
| CCOP1(=S)c2c(C)nn(CCC#N)c2N=C(c2ccc(F)cc2)N1C (stereo not given) | inactive: -14.9% |
| O=[N+]([O-])c1ccc2c(c1)nnn2O | inactive: 13% |
| CCOP1(=S)c2c(C)nn(CCC#N)c2N=C(c2ccccc2F)N1C (stereo not given) | inactive: -4.31% |
| O=P(Nc1nccs1)(Oc1ccccc1)Oc1ccccc1 | inactive: 0.14% |
| O=P(Nc1nccs1)(c1ccccc1)c1nc2ccccc2s1 (stereo not given) | inactive: -1.5% |
| COc1cc(C2NCCC3(OCCO3)C2(C)C)cc(OC)c1OC (stereo not given) | inactive: 6.59% |
| CCOP(=O)(Nc1cccc2ccccc12)OCC | inactive: 2.35% |
| Cc1ccc(NCCc2c([N+](=O)[O-])cc([N+](=O)[O-])cc2[N+](=O)[O-])cc1 | inactive: 3.92% |
| Cc1cccc(OCC(=O)OC2CN3CCC2CC3)c1 (stereo not given) | inactive: -1.41% |
| COc1cc(C(=O)NCC2(N3CCOCC3)CCCCC2)cc(Cl)c1OC(C)C | inactive: 4.84% |
| CC(C)/C=N\N=C(\N)N[N+](=O)[O-] | inactive: -1.96% |

| Structure (SMILES) | activation |
| --- | --- |
| CN(C(=O)Cc1ccc(Cl)c(Cl)c1)[C@@H]1CCCC[C@H]1N1CCCC1 | inactive: -5.9% |
| CC1(CBr)Cn2c(nc3ccccc3c2=O)S1 (stereo not given) | inactive: 2.89% |
| Clc1n[nH]nc1-c1nn[nH][15n]1 | inactive: -3.74% |
| O=P1(Nc2ccccn2)COc2ccccc2OC1 | inactive: 8.27% |
| Cc1ccc(OCC(=O)OC2CN3CCC2CC3)cc1 (stereo not given) | inactive: 0.12% |
| O=P1(Nc2ccc(Br)cn2)COc2ccccc2OC1 | inactive: -1.75% |
| O=P1(Nc2ncccn2)COc2ccccc2OC1 | inactive: -2.97% |
| CN(C)C1(CNC(=O)c2ccc(S(C)(=O)=O)cc2)CCCCC1 | inactive: -0.31% |
| Cc1nn(-c2ccccc2)c2c1P(=O)(N1CCOCC1)N(C)C(c1ccccc1)=N2 (stereo not given) | inactive: 0.55% |
| CC1CCC(C(C)C)C(OP(=O)(Nc2ccccn2)c2ccccc2)C1 (stereo not given) | inactive: -1.89% |
| O=P(Nc1ccccn1)(c1cccc2ccccc12)c1cccc2ccccc12 | inactive: 0.51% |
| Cc1cc(SC(NC=O)C(Cl)(Cl)Cl)ncn1 (stereo not given) | inactive: -0.18% |
| Cc1cc(SC(NC(=O)c2ccccc2)C(Cl)(Cl)Cl)nc(C(C)C)n1 (stereo not given) | inactive: 1.63% |
| CCC(C)N(CC(C)C)C(=S)SC(NC(C)=O)C(Cl)(Cl)Cl (stereo not given) | inactive: -5.28% |
| O=C(COc1ccccc1)OC1CN2CCC1CC2 (stereo not given) | inactive: 1.98% |
| COP1(=S)c2c(C)nn(CCC#N)c2N=C(c2ccc(F)cc2)N1C (stereo not given) | inactive: -5.13% |
| COc1ccc(N/C(=N/P(=O)(N2CCOCC2)N2CCOCC2)N2CCOCC2)cc1 | inactive: -0.66% |
| COc1ccc2nc(NP(=O)(c3ccccc3)c3ccccc3)sc2c1 | inactive: 4.33% |
| Cc1c2c(nc3ccccc13)SC(C(Cl)Cl)C2 (stereo not given) | inactive: -1.75% |
| O=C(OC1CN2CCC1CC2)C12CC3CC(CC(C3)C1)C2 (stereo not given) | inactive: 3.36% |
| Cc1cc(=O)[nH]c(N[N+](=O)[O-])n1 | inactive: -0.43% |
| CC(C)NC(=O)NP(=O)(Oc1ccccc1)Oc1ccccc1 | inactive: 1.91% |
| CCN(CC)C(=S)SC(NC=O)C(Cl)(Cl)Cl (stereo not given) | inactive: -8.67% |
| O=[N+]([O-])c1cc([N+](=O)[O-])c(-c2ccn[nH]2)s1 | inactive: -0.76% |
| ClCCSc1nnc(-c2cccnc2)o1 | inactive: 4.01% |
| Cc1ccc2nc3c(c(C)c2c1)CC(C(Cl)Cl)S3 (stereo not given) | inactive: -4.63% |
